# This is a selection; strong and weak results do not stand in their true shares. Calls of active or inactive are those of the source. No stated cut-off is given here; in the data, active means activation above about 40%; inactive means the rest.
# The chains behind the UniProt entries cited, without tags or fusion partners.
# UniProt P16066, whole entry: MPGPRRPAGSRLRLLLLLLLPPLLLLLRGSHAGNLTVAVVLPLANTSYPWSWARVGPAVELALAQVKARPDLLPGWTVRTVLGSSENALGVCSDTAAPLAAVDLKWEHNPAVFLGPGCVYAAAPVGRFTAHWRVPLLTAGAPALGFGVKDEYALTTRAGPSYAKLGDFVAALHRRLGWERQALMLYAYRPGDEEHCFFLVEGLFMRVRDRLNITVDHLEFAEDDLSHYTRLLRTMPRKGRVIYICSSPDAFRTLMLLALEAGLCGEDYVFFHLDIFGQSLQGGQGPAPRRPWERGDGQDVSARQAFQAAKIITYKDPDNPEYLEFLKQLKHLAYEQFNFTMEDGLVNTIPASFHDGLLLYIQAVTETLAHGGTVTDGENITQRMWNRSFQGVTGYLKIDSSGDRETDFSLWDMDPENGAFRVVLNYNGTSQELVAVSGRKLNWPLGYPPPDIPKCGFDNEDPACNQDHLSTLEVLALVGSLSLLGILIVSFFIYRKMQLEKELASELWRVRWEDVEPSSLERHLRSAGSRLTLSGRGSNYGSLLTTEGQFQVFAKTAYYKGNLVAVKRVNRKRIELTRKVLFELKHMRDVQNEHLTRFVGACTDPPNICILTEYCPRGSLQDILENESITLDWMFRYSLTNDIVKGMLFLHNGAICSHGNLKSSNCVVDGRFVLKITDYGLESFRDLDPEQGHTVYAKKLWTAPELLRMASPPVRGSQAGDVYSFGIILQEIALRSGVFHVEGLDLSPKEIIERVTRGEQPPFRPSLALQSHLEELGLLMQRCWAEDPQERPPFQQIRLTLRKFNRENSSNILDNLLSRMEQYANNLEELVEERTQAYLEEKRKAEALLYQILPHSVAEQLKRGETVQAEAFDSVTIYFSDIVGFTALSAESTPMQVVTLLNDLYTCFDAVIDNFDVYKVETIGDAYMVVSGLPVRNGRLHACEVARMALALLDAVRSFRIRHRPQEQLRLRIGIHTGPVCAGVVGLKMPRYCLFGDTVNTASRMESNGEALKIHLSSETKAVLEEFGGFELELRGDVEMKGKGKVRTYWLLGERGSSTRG
# Molecular target: Atrial natriuretic peptide receptor 1 (Homo sapiens) (UniProt P16066)
# Assay: GC-A stimulated cGMP production enhancers – HEK293 GC-A cells, cGMP TR-FRET, EC30 ANP, primary screen (AID 1671463)
# Conditions: at 10 µM, hits give high values, 0% at EC30 ANP, 100% saturating ANP
row,SMILES,activation
1,CCCCn1nnnc1C(c1cccc2ccccc12)N1CCC(n2c(=O)[nH]c3ccccc32)CC1 (stereo not given),inactive: -4.62%
2,O=C(NCC1(N2CCCCC2)CCCCC1)c1ccc(OC(F)F)cc1,inactive: 1.46%
3,CC(C)(C)n1nnnc1C(c1ccccc1OC(F)(F)F)N1CCC(n2c(=O)[nH]c3ccccc32)CC1 (stereo not given),inactive: -0.78%
4,O=c1[nH]c2ccccc2n1C1CCN(C(c2ccccc2OC(F)(F)F)c2nnnn2C2CCCC2)CC1 (stereo not given),inactive: -5.15%
5,N#CC1(Nc2ccccc2)CCN(CCc2ccccc2)CC1,inactive: 1.34%
6,CCN1CCC(Nc2ccc(Cl)cc2)CC1,inactive: 2.2%
7,CSc1ccc(C(=O)NCC2(N3CCOCC3)CCCCC2)cc1,inactive: -2.24%
8,O=C(NCC1(N2CCCCC2)CCCCC1)c1cccc([N+](=O)[O-])c1,inactive: 1.04%
9,CN1CCC(Nc2cccc(F)c2)CC1,inactive: -0.59%
10,O=C(NCC1(N2CCCCC2)CCCCC1)c1cncc(Br)c1,inactive: 2.55%
11,COc1ccc(C(c2nnnn2C2CCCC2)N2CCC(n3c(=O)[nH]c4ccccc43)CC2)cc1 (stereo not given),inactive: -6.31%
12,CCCOc1ccc(C(=O)NCC2(N(C)C)CCCCC2)cc1OC,inactive: -2.02%
13,Cc1ccc(C(=O)NCC2(N(C)C)CCCCC2)o1,inactive: 2.73%
14,CC(C)c1ccc(NC2CCN(C(=O)OC(C)(C)C)CC2)cc1,inactive: 6.43%
15,CN(C)c1cccc(C(=O)NCC2(N3CCCCC3)CCCCC2)c1,inactive: -3.02%
16,COc1ccc(CN(CCCl)CCCl)cc1Cl,inactive: -3.25%
17,COC(=O)C1(Nc2ccccc2)CCN(Cc2ccccc2)CC1,inactive: 2.7%
18,O=C(NCC1(N2CCOCC2)CCCCC1)c1cc(F)c(F)cc1Cl,inactive: 2.01%
19,CCC(c1nnnn1C(C)(C)C)N1CCC(n2c(=O)[nH]c3ccccc32)CC1 (stereo not given),inactive: -2.81%
20,COc1cc(OC)c(C(=O)NCC2(N(C)C)CCCCC2)cc1OC,inactive: 4.23%
21,CCCCn1nnnc1C(c1ccnc2ccccc12)N1CCC(n2c(=O)[nH]c3ccccc32)CC1 (stereo not given),inactive: -4.25%
22,Cc1cc(C)cc(N(C(=O)c2ccccc2)C2CCN(C(=O)OC(C)(C)C)CC2)c1,inactive: -3.61%
23,O=C(NCC1(N2CCCCC2)CCCCC1)c1ccc(Cl)nc1,inactive: 0.36%
24,O=c1[nH]c2ccccc2n1C1CCN(C(c2ccccc2OC(F)(F)F)c2nnnn2C2CCCCC2)CC1 (stereo not given),inactive: -4.02%
25,O=C(NCC1(N2CCOCC2)CCCCC1)c1cc2ccccc2o1,inactive: -0.95%
26,COc1ccc(Cl)cc1C(=O)NCC1(N2CCOCC2)CCCCC1,inactive: -0.23%
27,N#CC1(Nc2ccccc2)CCN(Cc2ccccc2)CC1,inactive: -0.15%
28,O=C(NCC1(N2CCCCC2)CCCCC1)c1ccc(Cl)s1,inactive: -1.09%

row,SMILES,activation
1,O=C(OC1CN2CCC1CC2)C1c2ccccc2Oc2ccccc21 (stereo not given),inactive: -9.98%
2,O=c1[nH]c2ccccc2n1C1CCN(C(c2cc3ccccc3o2)c2nnnn2C2CCCCC2)CC1 (stereo not given),inactive: 0.48%
3,CCCCn1nnnc1C(c1ccc(OC)cc1)N1CCC(n2c(=O)[nH]c3ccccc32)CC1 (stereo not given),inactive: -3.36%
4,CCOC(=O)N1CCC(Nc2ccc(OC)cc2)CC1,inactive: -1.93%
5,CC(C)(C)OC(=O)N1CCC(N(C(=O)c2ccccc2)c2ccc(F)cc2)CC1,inactive: 1.22%
6,COc1ccc(C(=O)NCC2(N3CCCCC3)CCCCC2)c(OC)c1OC,inactive: 4.26%
7,CCC(c1nnnn1C1CCCC1)N1CCC(n2c(=O)[nH]c3ccccc32)CC1 (stereo not given),inactive: -1.63%
8,COc1ccc(C(=O)NCC2(N3CCCCC3)CCCCC2)cc1,inactive: -0.79%
9,O=C(NCC1(N2CCCCC2)CCCCC1)c1cccs1,inactive: -3.2%
10,CCCCn1nnnc1C(CC)N1CCC(n2c(=O)[nH]c3ccccc32)CC1 (stereo not given),inactive: -2.12%
11,CCCCn1nnnc1C(c1cccs1)N1CCC(n2c(=O)[nH]c3ccccc32)CC1 (stereo not given),inactive: -7.02%
12,O=C(NCC1(N2CCCCC2)CCCCC1)c1ccc(=O)[nH]c1,inactive: 2.65%
13,Cc1cccc(NC2(C#N)CCN(Cc3ccccc3)CC2)c1,inactive: -6.16%
14,CSc1ccccc1C(=O)NCC1(N2CCCCC2)CCCCC1,inactive: -0.12%
15,O=c1[nH]c2ccccc2n1C1CCN(C(c2ccccc2)c2nnnn2C2CCCCC2)CC1 (stereo not given),inactive: -8.21%
16,CCOC(=O)N1CCC(Nc2cccc(C)c2)CC1,inactive: -3.13%
17,COc1cc(C(=O)NCC2(N(C)C)CCCCC2)ccc1OC(F)F,inactive: 6.66%
18,O=c1[nH]c2ccccc2n1C1CCN(C(c2cccc3ccccc23)c2nnnn2C2CCCC2)CC1 (stereo not given),inactive: -7.38%
19,O=C1CCN(Cc2ccccc2)CC1,inactive: 0.96%
20,CC(C)(C)n1nnnc1C(c1ccccc1)N1CCC(n2c(=O)[nH]c3ccccc32)CC1 (stereo not given),inactive: -1.82%
21,CCOc1ccc(C)cc1CN(CCCl)CCCl,inactive: -0.26%
22,COc1ccc(NC2CCN(CCc3ccccc3)CC2)c(OC)c1,inactive: -1.39%
23,CCOC(=O)N1CCC(Nc2ccc(F)cc2)CC1,inactive: -2.23%
24,O=P1(N(CCCl)CCCl)SCCCS1,inactive: -0.85%
25,CCCCn1nnnc1C(c1cc2ccccc2o1)N1CCC(n2c(=O)[nH]c3ccccc32)CC1 (stereo not given),inactive: 7.97%
26,CCCCOc1ccc(C(=O)NCC2(N3CCOCC3)CCCCC2)cc1,inactive: 5.28%
27,O=C(NCC1(N2CCCCC2)CCCCC1)c1ccc(F)cc1,inactive: 2.79%
